Earlier results on 1 compound are cited in publication PMC12169663, “Deciphering the Tumor Uptake of Heterobivalent (SST2/Albumin) [^64Cu]Cu-NODAGA-cLAB-TATEs” (Journal of Medicinal Chemistry, 2025).

Chains of the proteins cited; added tags and fusions are not shown. Residues count along the entry.
UniProt P02768, 25-609 limits assumed: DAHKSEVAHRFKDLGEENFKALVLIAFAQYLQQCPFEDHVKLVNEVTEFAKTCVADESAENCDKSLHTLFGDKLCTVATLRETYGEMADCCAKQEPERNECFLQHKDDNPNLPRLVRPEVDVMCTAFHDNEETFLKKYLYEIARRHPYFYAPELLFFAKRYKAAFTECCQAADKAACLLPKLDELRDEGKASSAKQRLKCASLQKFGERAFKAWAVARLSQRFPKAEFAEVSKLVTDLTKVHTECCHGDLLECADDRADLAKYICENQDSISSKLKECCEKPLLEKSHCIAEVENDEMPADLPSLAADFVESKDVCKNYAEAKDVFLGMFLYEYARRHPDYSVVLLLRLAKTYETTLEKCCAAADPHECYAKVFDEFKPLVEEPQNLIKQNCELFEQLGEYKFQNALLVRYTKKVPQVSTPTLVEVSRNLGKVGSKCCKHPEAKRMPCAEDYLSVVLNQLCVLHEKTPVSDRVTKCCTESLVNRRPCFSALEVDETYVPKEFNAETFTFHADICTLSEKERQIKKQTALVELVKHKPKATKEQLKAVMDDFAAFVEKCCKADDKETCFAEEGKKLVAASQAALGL

The data set deals with HSA (Homo sapiens, UniProt P02768). The note with it: read-out: Kd value of the albumin binder; isolated albumin binder; ref 1 (SI: Brandt et al., J. Med. Chem. 2022); cited from earlier work.

For the compound `Cc1ccc(CCCC(=O)NCCCC[C@H](NC(=O)c2ccc(N=[N+]=[N-])cc2)C(=O)O)cc1`, the Kd (in general, the equilibrium constant for the complex coming apart) was 3 µM.
